Experimental data as given in patent publication US12312332B2 (Merck Sharp & Dohme LLC., priority 2019, dated 2025).

By UniProt entry, the sequences of proteins in these tests, tags left out.
UniProt O43614, whole entry: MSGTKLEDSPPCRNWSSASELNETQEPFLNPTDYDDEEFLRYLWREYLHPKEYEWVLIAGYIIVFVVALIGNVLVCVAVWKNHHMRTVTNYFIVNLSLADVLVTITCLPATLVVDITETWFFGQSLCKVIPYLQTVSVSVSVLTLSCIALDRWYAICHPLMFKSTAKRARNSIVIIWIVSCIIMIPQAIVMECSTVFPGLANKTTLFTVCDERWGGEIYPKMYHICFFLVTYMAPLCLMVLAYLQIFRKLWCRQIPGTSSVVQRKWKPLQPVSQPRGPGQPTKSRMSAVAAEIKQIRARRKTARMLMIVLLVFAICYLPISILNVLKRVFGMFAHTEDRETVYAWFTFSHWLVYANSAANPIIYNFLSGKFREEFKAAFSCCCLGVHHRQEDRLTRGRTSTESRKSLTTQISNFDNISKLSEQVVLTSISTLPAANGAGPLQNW

Biological target: human OX2R (Homo sapiens, UniProt O43614)
Assay: IPOne (IP-One) orexin receptor agonist assay in CHO cells expressing human OX2R

CS(=O)(=O)N[C@H]1CCN(c2cn[nH]c2)[C@H]1CO[C@H]1CC[C@@H](c2ccccc2)CC1
% Inhibition (human OX2R, percentage of sample raw value/mean max effect (reference compound at 1 uM with 100% activity)): 83.5% | EC50 (read-out: OX2R Potency, EC50, CHO cells expressing human OX2R, IP-One detection, 2 hours incubation, four parameter logistic fit): 3.95 µM
